Where two headings read alike, the source gives them in different places.
Tests used:
human 5-HT1A receptor = target: T1, human 5-HT1A receptor (Homo sapiens, UniProt P08908); test: 5-HT1A receptor binding assay with [3H]8-OH-DPAT in CHO cell membranes
T1 construct: expressed in transfected cells
Method: A stable Chinese hamster ovary cell line expressing the human 5-HT1A receptor subtype (5H-HT1A.CHO cells) was employed throughout this procedure. Cells were maintained in DMEM supplemented with 10% fetal calf serum, non-essential amino acids and penicillin/ streptomycin.
Cells were grown to 95-100% confluency as a monolayer before membranes were harvested for binding studies. Cells were gently scraped from the culture plates, transferred to centrifuge tubes, and washed twice by centrifugation (at 2000 rpm for 10 min., 4°C) in buffer (50 mM Tris; pH 7.5). The resulting pellets were aliquoted and stored at -80•C until needed. On the day of assay, the cells were thawed on ice, and resuspended in buffer. Studies were conducted using [^3H]8-OH-DPAT as the radioligand. The binding assay was performed in 96 well microtiter plates in a final total volume of 250 µL of buffer. […] Non-specific binding was determined in the presence of 10 µM 5HT. Saturation analysis was conducted by using [^3H]8-OH-DPAT at concentrations ranging from 0.3-30 nM. Following a 30 minute incubation at room temperature, the reaction was terminated by the addition of ice cold buffer and rapid filtration using a M-96 Brandel Cell Harvester through a GF/B filter presoaked for 30 minutes in 0.5% polyethyleneimine.

The chains behind the UniProt entries cited, without tags or fusion partners.
UniProt P08908, whole entry: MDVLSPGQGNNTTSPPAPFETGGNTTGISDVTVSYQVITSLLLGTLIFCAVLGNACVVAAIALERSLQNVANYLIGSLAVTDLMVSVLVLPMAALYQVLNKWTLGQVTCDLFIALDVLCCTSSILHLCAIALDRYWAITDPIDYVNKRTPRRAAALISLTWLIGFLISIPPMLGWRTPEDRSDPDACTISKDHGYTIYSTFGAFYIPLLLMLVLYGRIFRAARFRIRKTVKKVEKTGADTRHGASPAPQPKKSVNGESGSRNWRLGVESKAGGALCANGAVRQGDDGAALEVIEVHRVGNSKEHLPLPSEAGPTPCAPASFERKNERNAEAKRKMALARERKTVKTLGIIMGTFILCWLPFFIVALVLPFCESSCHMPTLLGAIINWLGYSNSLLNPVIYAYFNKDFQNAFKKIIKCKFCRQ
UniProt P31652, whole entry: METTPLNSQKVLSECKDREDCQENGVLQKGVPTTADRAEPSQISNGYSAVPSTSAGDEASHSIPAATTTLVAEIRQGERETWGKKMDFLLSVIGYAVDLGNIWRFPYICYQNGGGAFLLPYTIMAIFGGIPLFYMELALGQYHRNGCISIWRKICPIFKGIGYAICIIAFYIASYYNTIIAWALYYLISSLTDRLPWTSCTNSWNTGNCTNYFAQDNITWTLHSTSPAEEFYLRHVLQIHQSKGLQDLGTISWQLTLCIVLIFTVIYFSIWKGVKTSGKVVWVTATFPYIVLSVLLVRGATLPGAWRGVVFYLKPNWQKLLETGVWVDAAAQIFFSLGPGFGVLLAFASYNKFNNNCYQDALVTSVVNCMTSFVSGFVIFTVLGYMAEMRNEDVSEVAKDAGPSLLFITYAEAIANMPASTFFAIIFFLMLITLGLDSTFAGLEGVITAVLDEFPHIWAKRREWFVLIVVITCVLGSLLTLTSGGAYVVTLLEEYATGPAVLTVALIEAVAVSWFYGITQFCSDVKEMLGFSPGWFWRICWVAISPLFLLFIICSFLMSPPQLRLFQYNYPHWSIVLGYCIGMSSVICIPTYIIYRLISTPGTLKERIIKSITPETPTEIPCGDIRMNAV

serotonin transporter = target: T2, serotonin transporter (Rattus norvegicus, UniProt P31652); test: Serotonin transporter affinity, 3H-paroxetine binding to frontal cortical membranes; set-up: species or system Sprague-Dawley rats; conditions: 3H-paroxetine 0.1 nM, head also allows % Inh. @.1 µM
T2 construct: frontal cortical membranes prepared from male Sprague-Dawley rats; from tissue; host or cells: frontal cortex membranes of male Sprague-Dawley rats

[1] = [3H]8-OH-DPAT 1.5 nM, membranes of CHO cells expressing human 5-HT1A receptor, read-out: 5-HT1A (Ki)

With `Fc1ccc2[nH]cc(CCCNCC3CN(c4ccccc4)c4ccccc4O3)c2c1` (single isomer, unassigned; (+)) [Example 19] the Ki (human 5-HT1A receptor; [1]) was 63.4 nM.

In the case of `Fc1ccc2[nH]cc(CCCNCC3CN(c4ccccc4)c4ccccc4O3)c2c1` (single isomer, unassigned; (-)) [Example 18], the Ki (human 5-HT1A receptor; [1]) is reported as 18.1 nM.

Work on `c1ccc(N2CC(CNCCCc3c[nH]c4ccccc34)Oc3ccccc32)cc1` (centres unmarked) [Example 7, [3-(1H-Indol-3-yl)-propyl]-4-phenyl-3,(4-dihydro-2H-benzo[1,4]oxazin-2-yl-methyl)-amine] yielded a Ki (serotonin transporter; ST (Ki, nM, % Inh. @.1 µM)) of 23 nM.

`Fc1ccc2[nH]cc(CCCNCC3CN(c4ccccc4)c4ccccc4O3)c2c1` (centres unmarked) [Example 11, [3-(5-Fluoro-1H-indol-3-yl)-propyl]-(4-phenyl-3,4-dihydro-2H-benzo[1,4]oxazin-2-yl-methyl)-amine] was tested, and the Ki (human 5-HT1A receptor; 5-HT1A (Ki, nM)) was 7.14 nM.

`Fc1ccc2[nH]cc(CCCNCC3COc4ccccc4N3)c2c1` (centres unmarked) [Example 20, (3,4-Dihydro-2H-benzo[1,4]oxazin-3-yl-methyl)-[3-(5-fluoro-1H-indol-3-yl)propyl]-amine] showed a Ki (serotonin transporter; read-out: ST (Ki, nM, % Inh. @.1 µM)) of 23 nM.

Source: patent publication EP1140925B1, “(3,4 DIHYDRO-2H-BENZO[1,4] OXAZINYL-METHYL)- 3-(1H-INDOL-3- YL)-ALKYL -AMINES” (Wyeth, priority 1999, dated 2000)
